Measurements published in ChEMBL document CHEMBL5247634, “Design, synthesis and anticancer evaluation of selective 2,4-disubstituted pyrimidine CDK9 inhibitors” (Eur J Med Chem, 2022).

Amino acid sequences for entries named in this document (tags omitted).
UniProt P50750, whole entry: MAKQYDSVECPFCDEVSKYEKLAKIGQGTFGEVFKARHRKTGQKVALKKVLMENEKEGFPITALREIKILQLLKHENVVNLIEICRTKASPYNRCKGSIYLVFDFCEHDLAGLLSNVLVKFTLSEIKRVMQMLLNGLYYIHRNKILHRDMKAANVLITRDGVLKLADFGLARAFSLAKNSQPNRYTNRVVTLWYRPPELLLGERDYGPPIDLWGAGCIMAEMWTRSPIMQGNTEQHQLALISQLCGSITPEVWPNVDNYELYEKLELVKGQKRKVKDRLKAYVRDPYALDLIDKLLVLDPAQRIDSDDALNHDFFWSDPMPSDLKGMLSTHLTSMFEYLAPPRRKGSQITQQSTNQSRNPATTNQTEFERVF

Target: Cyclin-dependent kinase 9 (Homo sapiens, UniProt P50750)

IC50: 5 nM
SMILES: COc1cc(F)ccc1-c1ccnc(NC(=O)[C@H]2CCC[C@@H](NC(C)=O)C2)c1
